Laboratory results as given in patent US20130261173A1, “CYCLODEXTRIN-BASED POLYMERS FOR THERAPEUTIC DELIVERY” (CERULEAN PHARMA INC., priority 2009, published 2013).
Like-named read-outs stand apart in the source and are kept apart here.

Experiments:
[1] = mouse, in vivo
[2] = Tolerability in the murine melanoma model (body weight)
[3] = Protocol: The drug release and stability method experiment was run using the following
A 10 mg/mL (with regard to polymer) solution of each CDP-linker-DTX nanoparticle was prepared in water (pH<5) or in 0.1×PBS buffer (pH=7.4). An aliquot of 100 μL was transferred into corresponding HPLC vials. A vial containing each CDP-linker-DTX nanoparticle in water for each designated time point was placed in both: 1) a water bath at 37° C. and 2) kept at room temperature at 25° C. Samples were mixed using a water bath shaker at 100 rpm during the experiments. At each designated time point, a vial was removed for each CDP-linker-DTX nanoparticle and processed for HPLC using a sample preparation procedure.
If there was any precipitated material in the vial, the contents were also stirred to dissolve the precipitate. If the sample was still opaque, an additional 25 μL of 0.1% formic acid in ACN was added.
The sample degradation was calculated based on the percentage of the amount of conjugated drug with regard to the initial starting point of the experiment (at t=0).

[4] = assay type: physicochemical; settings: dissolved in water, DLS
Protocol: CDP-hexanoate-docetaxel (100 mg) as prepared in example 3 above was dissolved in water (10 mL). Particle solution properties were characterized by dynamic light scattering (DLS) spectrometer.
CDP-NHEtSSEtOCO-2′-O-docetaxel (100 mg) as prepared in example 12 above was dissolved in water (10 mL). Particle solution properties were characterized by dynamic light scattering (DLS) spectrometer.
CDP-NHEtSSEtOCO-2′-O-docetaxel as prepared in Example 15 above (1 mg) was dissolved in water (1 mL). Particle solution properties were characterized by dynamic light scattering (DLS) spectrometer.
After decanting the acetone, the polymer was dissolved in 10 ml of water to make ˜10 mg/mL polymer solution. The solution was then dialyzed against 4 L water using 25 kDa MWCO dialysis tube. […] The filtered solution was then analyzed for size by dynamic light scattering (DLS) spectrometer.
The reaction was worked up by precipitating the polymer in 15 volumes of acetone (150 mL). […] The final solution (volume ˜52 mL) was filtered through a 0.22 μm filter and the filtered solution was analyzed for particle size.
The reaction was worked up by precipitating the polymer in 15 volumes of acetone (45 mL), which occurred immediately in the form of a lump. […] The resulting solution (˜16.5 mL), was filtered through a 0.22 μm filter and the filtered solution was analyzed for particle size. […]

[5] = 15 mg/kg IV, three injections over 2 weeks (twice per week)
[6] = 15 mg/kg IV, weekly schedule for 3 injections
[7] = 30 mg/kg IV, weekly schedule for 3 injections (study of 1.4, 2.3, 4.2, 5.2)
[8] = 0.1x PBS, pH = 7.4, 37° C., 24 h

Substance: CDP-2′-hexanoate-docetaxel [CDP-Hex-DTX formulation]
- Maximum body weight loss (%) [1]: 0%

Substance: CDP-2′-glycine-docetaxel [CDP-Gly-DTX formulation]
- Maximum body weight loss (%) [2, 5]: 7%
- Maximum body weight loss (%) [2, 6]: 0%
- Maximum body weight loss (%) ([2]; 30 mg/kg IV, biweekly schedule for 3 injections): 4%
- Maximum body weight loss (%) ([2]; 30 mg/kg IV, three injections over 2 weeks (twice per week)): 20%
- Maximum body weight loss (%) [2, 7]: 14%
- Maximum body weight loss (%) ([2]; 30 mg/kg IV, weekly schedule for 3 injections (study of 1.5)): 15%
- In vitro degradation of conjugate (24 hrs in PBS at 37° C.) [3, 8]: 84%
- In vitro release of free drug (24 hrs in PBS at 37° C.) [3, 8]: 88%

Substance: CDP-2′-alanine glycolate-docetaxel [CDP-Ala Gly-DTX formulation]
- Maximum body weight loss (%) [2, 5]: 6%
- Maximum body weight loss (%) [2, 6]: 3%
- Maximum body weight loss (%) ([2]; 30 mg/kg IV, biweekly schedule for 2 injections): 2%
- Maximum body weight loss (%) [2, 7]: 7%
- In vitro degradation of conjugate (24 hrs in PBS at 37° C.) [3]: 96%
- Dv50 [4]: 12.9 nm
- Dv90 [4]: 26.1 nm
